These are literature values, as cited in publication PMC11361989, “A simple HPLC–MS/MS method for the determination of polymyxin B in human plasma and its application in the pharmacokinetic study in elderly patients infected with multidrug-resistant Gram-negative bacteria” (Frontiers in Pharmacology, 2024).

For the data set the following is noted: ref Matar and Al-Refai, 2020; cited from earlier work.

For the substance colistin B, the “Stability when stored at 25°C for 6 h” value is “cannot be stable”.
